Measured values: PMC9001978, “Determining the Effects of Differential Expression of GRKs and β-arrestins on CLR-RAMP Agonist Bias” (Frontiers in Physiology, 2022)

Sequences of proteins named here, by UniProt entry; tags and fusion partners are left off. Residues count along the entry.
UniProt O60895, 43-175: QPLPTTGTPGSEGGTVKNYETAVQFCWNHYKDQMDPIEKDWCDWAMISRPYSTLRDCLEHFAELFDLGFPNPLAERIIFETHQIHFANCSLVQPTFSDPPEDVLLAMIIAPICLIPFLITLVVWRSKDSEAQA
UniProt Q16602, 23-461: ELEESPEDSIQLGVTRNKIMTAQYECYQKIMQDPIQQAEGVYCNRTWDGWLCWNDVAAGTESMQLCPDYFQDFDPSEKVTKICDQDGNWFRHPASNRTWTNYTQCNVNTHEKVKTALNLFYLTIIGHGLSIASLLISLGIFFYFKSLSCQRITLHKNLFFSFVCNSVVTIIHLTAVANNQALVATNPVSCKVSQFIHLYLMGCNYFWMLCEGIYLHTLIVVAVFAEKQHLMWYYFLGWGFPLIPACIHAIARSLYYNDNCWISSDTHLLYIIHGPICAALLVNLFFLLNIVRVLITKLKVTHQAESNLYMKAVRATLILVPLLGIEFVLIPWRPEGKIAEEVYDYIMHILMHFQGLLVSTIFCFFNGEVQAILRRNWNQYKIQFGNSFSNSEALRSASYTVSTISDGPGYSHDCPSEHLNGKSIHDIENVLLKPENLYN

What was measured:
CLR-RAMP2 [1] = target: T1, CLR-RAMP2 (Homo sapiens, UniProt O60895+Q16602); assay: β-arrestin1 recruitment to CLR-RAMP2 (BRET); conditions: HEK293T, N.R. = no response or too small (pEC50 and Emax)
CLR-RAMP2 [2] = target: T1, CLR-RAMP2; assay: β-arrestin2 recruitment to CLR-RAMP2 (BRET); conditions: HEK293T, N.R. = no response or too small (pEC50 and Emax), n = 3
CLR-RAMP2 [3] = target: T1, CLR-RAMP2; assay: cAMP accumulation at CLR-RAMP2; conditions: HEK293T, 30 min, N.R. = no response or too small (pEC50 and Emax), n = 3

CSCC[C@H](NC(=O)[C@H](CC(C)C)NC(=O)[C@H](CCC(N)=O)NC(=O)[C@H](Cc1c[nH]c2ccccc12)NC(=O)[C@H](CC(C)C)NC(=O)[C@H](CCCNC(=N)N)NC(=O)[C@H](Cc1c[nH]cn1)NC(=O)[C@H](CO)NC(=O)[C@H](CC(C)C)NC(=O)[C@H](CC(N)=O)NC(=O)[C@H](CCC(N)=O)NC(=O)[C@@H](NC(=O)[C@H](CCC(N)=O)NC(=O)[C@@H]1CSSC[C@H](NC(=O)CNC(=O)[C@@H](NC(=O)[C@H](CCCNC(=N)N)NC(=O)[C@H](CC(C)C)NC(=O)[C@H](CC(C)C)NC(=O)[C@H](CCC(N)=O)NC(=O)[C@H](C)NC(=O)[C@H](CCC(N)=O)NC(=O)[C@@H](N)[C@@H](C)O)C(C)C)C(=O)N[C@@H](C(C)C)C(=O)N[C@@H](CC(C)C)C(=O)NCC(=O)N[C@@H]([C@@H](C)O)C(=O)N1)C(C)C)C(=O)NCC(=O)N1CCC[C@H]1C(=O)N[C@@H](C)C(=O)NCC(=O)N[C@@H](CCCNC(=N)N)C(=O)N[C@@H](CCC(N)=O)C(=O)N[C@@H](CC(=O)O)C(=O)N[C@@H](CO)C(=O)N[C@@H](C)C(=O)N1CCC[C@H]1C(=O)N[C@H](C(=O)N[C@@H](CC(=O)O)C(=O)N1CCC[C@H]1C(=O)N[C@@H](CO)C(=O)N[C@@H](CO)C(=O)N1CCC[C@H]1C(=O)N[C@@H](Cc1c[nH]cn1)C(=O)N[C@@H](CO)C(=O)N[C@@H](Cc1ccc(O)cc1)C(N)=O)C(C)C [AM2, adrenomedullin 2]
N.R.: pEC50, β-arrestin1 recruitment (CLR-RAMP2 [1]; GRK5 overexpressed, n = 3) | pEC50, β-arrestin1 recruitment (CLR-RAMP2 [1]; GRK6 overexpressed, n = 4) | pEC50, β-arrestin2 recruitment (CLR-RAMP2 [2]; GRK5 overexpressed) | pEC50, β-arrestin2 recruitment (CLR-RAMP2 [2]; GRK6 overexpressed) | pEC50, cAMP accumulation (CLR-RAMP2 [3]; GRK3 overexpressed) | pEC50, cAMP accumulation (CLR-RAMP2 [3]; GRK4 overexpressed) | pEC50, cAMP accumulation (CLR-RAMP2 [3]; GRK6 overexpressed)
